Results: publication PMC7051184, “C9orf72 arginine-rich dipeptide repeat proteins disrupt karyopherin-mediated nuclear import” (eLife, 2020)

By UniProt entry, the sequences of proteins in these tests, tags left out.
UniProt Q14974, whole entry: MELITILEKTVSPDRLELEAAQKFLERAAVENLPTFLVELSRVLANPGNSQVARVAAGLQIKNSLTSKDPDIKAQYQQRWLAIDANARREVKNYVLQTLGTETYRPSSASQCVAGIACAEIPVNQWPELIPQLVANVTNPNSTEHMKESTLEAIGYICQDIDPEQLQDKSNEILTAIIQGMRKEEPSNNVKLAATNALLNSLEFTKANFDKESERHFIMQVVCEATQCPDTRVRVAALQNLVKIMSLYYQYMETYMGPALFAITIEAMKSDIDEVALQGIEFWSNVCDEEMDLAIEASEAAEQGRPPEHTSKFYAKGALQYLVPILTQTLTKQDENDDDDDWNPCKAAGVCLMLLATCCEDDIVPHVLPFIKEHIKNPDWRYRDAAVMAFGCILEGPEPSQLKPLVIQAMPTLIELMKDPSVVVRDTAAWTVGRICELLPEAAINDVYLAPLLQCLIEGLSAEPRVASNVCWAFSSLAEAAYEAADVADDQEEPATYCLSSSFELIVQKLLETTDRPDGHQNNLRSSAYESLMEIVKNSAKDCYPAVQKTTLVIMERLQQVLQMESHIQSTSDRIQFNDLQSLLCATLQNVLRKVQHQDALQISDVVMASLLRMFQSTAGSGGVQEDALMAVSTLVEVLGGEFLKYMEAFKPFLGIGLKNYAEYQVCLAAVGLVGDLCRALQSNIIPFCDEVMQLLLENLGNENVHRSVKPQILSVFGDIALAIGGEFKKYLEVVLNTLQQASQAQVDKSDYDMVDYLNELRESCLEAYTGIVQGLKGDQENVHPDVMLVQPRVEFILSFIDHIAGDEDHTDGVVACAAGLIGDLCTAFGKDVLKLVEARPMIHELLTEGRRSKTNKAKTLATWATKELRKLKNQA

Columns and labels:
Nup133 = test: DPR aggregation assay and western blot, Nup133; format: biochemical, human; details: 100 µM 10mer in 2.5 mg/ml HEK lysate, normalized to untreated HEK
Protocol: (§1) Supernatant and pellet fractions (for all 5 DPRs, and control/buffer only) were prepared as in the nuclear transport assays, by adding 100 µM 10mers to 2.5 mg/ml HEK lysate in 100 µL TRB. Supernatants were boiled in Laemmli (BioRad) for 5 min. Pellets were boiled for 15 min followed by sonication in order to fully disperse aggregates for SDS-PAGE. Equal volumes of supernatant and pellet fractions were run on 4–12% Bolt Bis-Tris Plus gels (ThermoFisher), transferred to nitrocellulose membrane using an iBlot2 dry blotting system (ThermoFisher). Protein loading was analyzed by BLOT-Faststain (G-biosciences, St. Louis, MO), according to the manufacterers’ instructions. For immunodetection, membranes were blocked with 5% non-fat milk in TBST and probed by sequential incubation with the primary antibodies as detailed in the table below. Detection was by HRP-conjugated secondary antibodies/chemiluminescence using an ImageQuant LAS 4000 system (GE, Chicago, IL). To permit sequential probing of membranes without stripping, signals were quenched by incubation with prewarmed 30% H20_2 for 20 min ([Sennepin et al., 2009]). Band intensities were measured by ImageQuant software. For pellet vs. supernatant fractions, all were expressed as percent untreated control. For blots in Figure 1E, samples were run on 4–20% SDS PAGE minigels (ThermoFisher) and blotted to PVDF membranes (Immun-Blot PVDF, Bio-Rad) using the Bio-Rad TransBlot Turbo apparatus, and probed as above. The chemiluminescence signal was captured with a Bio-Rad ChemiDoc XRS+ digital imaging system.

RanGAP1 = test: DPR aggregation assay and western blot, RanGAP1; format: biochemical, human; details: 100 µM 10mer in 2.5 mg/ml HEK lysate, normalized to untreated HEK
Protocol: as §1

[1] = molecular target: importin β-mediated nuclear import of Rango (Homo sapiens, UniProt Q14974); test: Permeabilized cell nuclear import assay, Rango, mouse primary cortical neurons; format: cell-based; details: 30 min, up to 100 µM
Description: All animal procedures were approved by the Johns Hopkins Animal Care and Use Committee. Timed pregnant C57BL/6J females (Jackson Laboratory, Bar Harbor, ME) were sacrificed by cervical dislocation at E16, cortex dissociated, and cells plated at 50,000/well on poly-D-lysine/laminin-coated, optical glass-bottom 96-well plates. Growth medium consisted of Neurobasal supplemented with B27, Glutamax, and penicillin/streptomycin (Gibco/ThermoFisher). At 5–7 days in vitro, neurons were rinsed in prewarmed PBS and permeabilized for 4 min. at 37° in a hypotonic solution containing […] Tris-HCl pH 7.5 (to cause osmotic swelling) and 50–150 mg/ml BSA (for molecular crowding/mechanical support). Following permeabilization, cells were placed on ice and rinsed 2 × 5 min in transport buffer (TRB, 20 mM HEPES, 110 mM KOAc, 2 mM Mg(OAc)2, 5 mM NaOAc, 0.5 mM EGTA, 250 mM sucrose, pH 7.3, with protease inhibitor cocktail). […]
Concentrated whole cell lysates were prepared from HEK293T cells (ATCC, mycoplasma negative and validated by STR profiling), grown in 150 mm dishes and sonicated on ice in 1X TRB in the presence of protease inhibitor cocktail (Roche). […] RNA concentration was measured by Nanodrop (ThermoFisher), and all 260/280 ratios were verified to be > 2.0. […]
For a subset of neuron transport assays, transport was monitored live via time lapse imaging every 5 min for 30 min. […]

transportin-1 (Tnpo1) = test: DPR aggregation assay and western blot, Tnpo1; format: biochemical, human; details: for Tnpo1 band density, Pellet / Tnpo1 band density, Supernatant: 100 µM 10mer in 2.5 mg/ml HEK lysate, normalized to untreated HEK; for TNPO1 band density, % untr control: Fig 5-suppl 3C, normalized to untreated HEK on same membrane;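 as to TNPO1 band density, % untr control: RNA rows contain added 20 µg total HEK RNA while no-RNA rows lack it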
Protocol: as §1

N=C(N)NCCC[C@H](NC(=O)CNC(=O)[C@H](CCCNC(=N)N)NC(=O)CNC(=O)[C@H](CCCNC(=N)N)NC(=O)CNC(=O)[C@H](CCCNC(=N)N)NC(=O)CNC(=O)[C@H](CCCNC(=N)N)NC(=O)CNC(=O)[C@H](CCCNC(=N)N)NC(=O)CNC(=O)[C@H](CCCNC(=N)N)NC(=O)CNC(=O)[C@H](CCCNC(=N)N)NC(=O)CNC(=O)[C@H](CCCNC(=N)N)NC(=O)CNC(=O)[C@H](CCCNC(=N)N)NC(=O)CN)C(=O)O [GR10]
Nup133 band density, Pellet (Nup133; Blot 1): 281.4 % control
Nup133 band density, Supernatant (Nup133; Blot 1): 45.5 % control
Nup133 band density, Pellet (Nup133; Blot 2): 251.6 % control
Nup133 band density, Supernatant (Nup133; Blot 2): 41.4 % control
RanGAP1 band density, Pellet (RanGAP1; Blot 1): 1022.6 % control
RanGAP1 band density, Supernatant (RanGAP1; Blot 1): 61.0 % control
RanGAP1 band density, Pellet (RanGAP1; Blot 2): 573.7 % control
RanGAP1 band density, Supernatant (RanGAP1; Blot 2): 68.7 % control
Effect on Rango import, time-lapse imaging [1]: dose-dependent inhibition of transport
Tnpo1 band density, Pellet (transportin-1 (Tnpo1); Blot 1): 291.6 % control
Tnpo1 band density, Supernatant (transportin-1 (Tnpo1); Blot 1): 81.9 % control
Tnpo1 band density, Pellet (transportin-1 (Tnpo1); Blot 2): 442.1 % control
Tnpo1 band density, Supernatant (transportin-1 (Tnpo1); Blot 2): 67.8 % control
TNPO1 band density, % untr control (transportin-1 (Tnpo1); Pellet, RNA, blot 1): 141.85%
TNPO1 band density, % untr control (transportin-1 (Tnpo1); Pellet, RNA, blot 2): 159.15%
TNPO1 band density, % untr control (transportin-1 (Tnpo1); Pellet, no RNA (Untreated), blot 1): 195.11%
TNPO1 band density, % untr control (transportin-1 (Tnpo1); Pellet, no RNA (Untreated), blot 2): 212.81%
TNPO1 band density, % untr control (transportin-1 (Tnpo1); Supernatant, RNA, blot 1): 79.24%
TNPO1 band density, % untr control (transportin-1 (Tnpo1); Supernatant, RNA, blot 2): 126.57%
TNPO1 band density, % untr control (transportin-1 (Tnpo1); Supernatant, no RNA (Untreated), blot 1): 51.45%
TNPO1 band density, % untr control (transportin-1 (Tnpo1); Supernatant, no RNA (Untreated), blot 2): 120.00%
